Where two headings read alike, the source gives them in different places.
Key:
human liver cathepsin L = human liver cathepsin L (Homo sapiens, UniProt P07711); assay: Cathepsin L assay, IC50 determination
Human spleen cathepsin S = Human spleen cathepsin S (Homo sapiens, UniProt P25774); assay: Cathepsin S assay, IC50 determination; conditions: read-out: IC50 Cat S; Table 1
Description: (§1) Human spleen cathepsin S (Calbiochem 219344, 40 ng/mL) was assayed using 15 microM Z-Phe-Arg-AMC substrate. Human liver cathepsin B (Calbiochem 219362, 65 ng/mL) was assayed using 15 microM Z-Arg-Arg-AMC substrate (Bachem I-1135). All reactions were performed in 20 mM sodium acetate buffer containing 1 mM EDTA and 5 mM cysteine, pH 5.5.
IC50 determinations were conducted with the following assay buffer: 20 mM sodium acetate, 1 mM EDTA, and 5 mM cysteine, pH 5.5. Compounds were serially diluted in DMSO and transferred into a 96-well Corning 3686 assay microplate to give a 16-point two-fold serial dilution dose response ranging from 25 microM to 760 pM. Human liver cathepsin L (Calbiochem 219402) was activated by incubating with assay buffer for 30 min. […]
(§2) Compound No. 1 was assayed for inhibition against papain and cathepsins B, G, K, S, and V. Papain from Carica papaya (Calbiochem 5125, 11 ng/mL), human cathepsin K (Calbiochem 342001, 35 ng/mL), human spleen cathepsin S (Calbiochem 219344, 40 ng/mL), and human cathepsin V (Calbiochem 219467, 39 ng/ml) were assayed using Z-Phe-Arg-AMC substrate at 20 μM, 20 μM, 15 μM, and 1 μM, respectively. […] Reaction progress was monitored using the Envision microplate reader. IC50 values were measured in triplicate.

Amino acid sequences for entries named in this document (tags omitted). Residues count along the entry.
UniProt P07711, 114-288 limits assumed: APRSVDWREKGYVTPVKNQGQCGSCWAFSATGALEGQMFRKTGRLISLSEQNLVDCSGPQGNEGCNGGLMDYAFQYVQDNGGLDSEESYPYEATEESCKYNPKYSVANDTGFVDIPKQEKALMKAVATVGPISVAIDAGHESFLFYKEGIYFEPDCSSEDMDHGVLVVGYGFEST
UniProt P07711, 292-333 limits assumed: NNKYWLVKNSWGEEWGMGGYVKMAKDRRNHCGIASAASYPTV
UniProt P25774, 115-331 limits assumed: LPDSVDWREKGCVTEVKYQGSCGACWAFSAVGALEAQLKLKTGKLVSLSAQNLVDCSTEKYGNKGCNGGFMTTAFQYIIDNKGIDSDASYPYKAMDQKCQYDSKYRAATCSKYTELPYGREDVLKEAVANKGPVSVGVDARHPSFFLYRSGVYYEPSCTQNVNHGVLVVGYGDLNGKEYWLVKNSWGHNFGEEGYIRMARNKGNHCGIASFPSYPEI

Human liver cathepsin B = Human liver cathepsin B (Homo sapiens, UniProt P07858); assay: Cathepsin B assay, IC50 determination; conditions: read-out: IC50 Cat B; Table 1
Description: as §1
IC50 determinations were conducted with the following assay buffer: 20 mM sodium acetate, 1 mM EDTA, and 5 mM cysteine, pH 5.5. Compounds were serially diluted in DMSO and transferred into a 96-well Corning 3686 assay microplate to give a 16-point two-fold serial dilution dose response ranging from 25 microM to 760 pM. Human liver cathepsin L (Calbiochem 219402) was activated by incubating with assay buffer for 30 min. Upon activation, cathepsin L (300 pM, 8.7 ng/mL) was incubated with 1 microM Z-Phe-Arg-AMC substrate (Sigma C9521) and test compound in […] of assay buffer for 1 hour at room temperature. Fluorescence of AMC released by enzyme-catalyzed hydrolysis of Z-Phe-Arg-AMC was read on a PerkinElmer Envision microplate reader (excitation 355 nm, emission 460 nm). Data were scaled using internal controls and fitted to a four-parameter logistic model (IDBS XLfit equation 205) to obtain IC50 values in triplicate.
as §2, with “respectively. Human liver cathepsin B (Calbiochem 219362, 65 ng/mL) was assayed using 15 μM Z-Arg-Arg-AMC substrate (Bachem I-1135). Human neutrophil cathepsin G (Calbiochem 219373, 4.2 μg/mL) was assayed using 15 μM Suc-Ala-Ala-Pro-Phe-AMC substrate (Sigma S9761).” for “respectively.”

CCc1ccccc1NC(=O)CCC(=O)NNC(=O)[C@H](Cc1c[nH]c2ccccc12)NC(=O)OC(C)(C)C [Compound No. 113] gave an IC50 (human liver cathepsin L; read-out: Cathepsin L inhibitory activity IC50, Table 17, n = 3, C, S or O at the sulfur position) of over 50 µM.

CC(C)(C)OC(=O)N[C@@H](CCC(=O)O)C(=O)NNC(=O)SCC(=O)N1CCCc2ccccc21 showed an IC50 (Human spleen cathepsin S) of over 25 µM, an IC50 (human liver cathepsin L; read-out: IC50 Cat L, Table 1) of at least 25 µM and an IC50 (Human liver cathepsin B) of over 25 µM.

CCc1ccccc1NC(=O)CSC(=O)NNC(=O)[C@H](Cc1ccccc1)NC(=O)OC(C)(C)C showed an IC50 (Human liver cathepsin B) of 3.06 µM.

Work on CC(C)(C)OC(=O)N[C@@H](COCc1ccccc1)C(=O)NNC(=O)SCC(=O)N1CCOc2ccccc21 yielded an IC50 (Human spleen cathepsin S) of 3 µM and an IC50 (Human liver cathepsin B) of 13.7 µM.

Reference: US20110207726A1, “Inhibitors of Human Cathepsin L, Cathepsin B, and Cathepsin S” (The Trustees of the University of Pennsylvania, priority 2008, published 2011)
